Measurements: patent US20220370454A1, “METHODS FOR TREATING CENTRAL NERVOUS SYSTEM DISORDERS WITH MUSCARINIC RECEPTOR ACTIVATION AND ANTIPSYCHOTICS” (Karuna Therapeutics, Inc., priority 2021, published 2022)

Experiment: Brain and plasma drug exposure collected after the LMA study
Format: in vivo, mice
Text: After the experiment, plasma and brain tissue were collected to determine drug exposure.

## Cc1nc2n(c(=O)c1CCN1CCC(c3noc4cc(F)ccc34)CC1)CCCC2 [Risperidone, risperidone]
0.01 mg/kg risperidone dose
  Risperidone plasma levels with xanomeline: does not alter
treatment: MK-801 0.3 + risperidone 0.001 mg/kg
  Brain level of the named substance: BLD (BLD=below level of detection; 0.2 ng/mL for risperidone and MK-801; 0.4 ng/mL for xanomeline)
treatment: MK-801 0.3 + risperidone 0.003 mg/kg
  Brain level of the named substance: BLD (BLD=below level of detection; 0.2 ng/mL for risperidone and MK-801; 0.4 ng/mL for xanomeline)
treatment: MK-801 0.3 + risperidone 0.01 mg/kg
  Brain level of the named substance: BLD (BLD=below level of detection; 0.2 ng/mL for risperidone and MK-801; 0.4 ng/mL for xanomeline)
treatment: MK-801 0.3 + risperidone 0.1 mg/kg, * MK-801 elevated vs MK-801 alone
  Brain level of the named substance: 22.9 ± 3.0 ng/g
treatment: MK-801 0.3 + risperidone 0.001 + xanomeline 1 mg/kg
  Brain level of the named substance: BLD (BLD=below level of detection; 0.2 ng/mL for risperidone and MK-801; 0.4 ng/mL for xanomeline)
treatment: MK-801 0.3 + risperidone 0.003 + xanomeline 1 mg/kg
  Brain level of the named substance: BLD (BLD=below level of detection; 0.2 ng/mL for risperidone and MK-801; 0.4 ng/mL for xanomeline)
treatment: MK-801 0.3 + risperidone 0.01 + xanomeline 1 mg/kg, * p<0.05 vs xanomeline alone
  Brain level of the named substance: BLD (BLD=below level of detection; 0.2 ng/mL for risperidone and MK-801; 0.4 ng/mL for xanomeline)
